Assay results taken from ChEMBL document CHEMBL1137888, “1,3-Dihydro-2,1,3-benzothiadiazol-2,2-diones and 3,4-dihydro-1H-2,1,3-benzothidiazin-2,2-diones as ligands for the NOP receptor” (2004).
Several values for one entry are separate records, joined by “and”; a condition that tells them apart may be missing. Equal values may be shown once.

Chains of the proteins cited; added tags and fusions are not shown.
UniProt P41146, whole entry: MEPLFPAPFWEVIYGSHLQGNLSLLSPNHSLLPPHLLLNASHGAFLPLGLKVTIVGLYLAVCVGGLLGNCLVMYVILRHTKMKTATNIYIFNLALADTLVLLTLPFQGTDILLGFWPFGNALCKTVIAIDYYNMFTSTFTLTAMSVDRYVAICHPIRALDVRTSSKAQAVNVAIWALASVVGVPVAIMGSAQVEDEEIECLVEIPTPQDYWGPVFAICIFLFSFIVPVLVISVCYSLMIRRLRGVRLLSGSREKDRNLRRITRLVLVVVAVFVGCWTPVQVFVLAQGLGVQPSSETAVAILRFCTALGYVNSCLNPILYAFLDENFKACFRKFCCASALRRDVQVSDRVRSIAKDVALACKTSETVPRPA

molecular target: Nociceptin receptor (Homo sapiens) (UniProt P41146); assay: Agonist activity as maximal effect in [35S]-GTP-gamma binding assay compared to 60 nM N/OFQ

SMILES	Emax
CC(C)CCC(C)N1CCC(N2c3ccccc3CNS2(=O)=O)CC1 (centres undefined)	84%
CC(C)C1CCC(N2CCC(N3c4ccccc4CN(CCO)S3(=O)=O)CC2)CC1 (centres undefined)	95%
CC(C)C1CCC(N2CCC(N3c4ccccc4CNS3(=O)=O)CC2)CC1 (centres undefined)	92% and 99% and 93%
CCCCN1Cc2ccccc2N(C2CCN(C3CCC(C(C)C)CC3)CC2)S1(=O)=O (centres undefined)	94%
